Assay results taken from article PMC11370232, “Repurposing of a library for high-content screening of inhibitors against Echinococcus granulosus” (Parasites & Vectors, 2024).

System: E. granulosus PSCs
Experiment: microbe, parasite or virus in culture
Settings: Echinococcus granulosus; for killing at 0.5 µM: read-out: Anti-echinicoccus activity, Dose confirmaiton 0.5uM, second-stage dose-response, 0.5 μM, PSCs; for killing at 2 µM: read-out: Anti-echinicoccus activity, Dose confirmaiton 2uM, second-stage dose-response, 2 μM, PSCs; for killing at 10 µM: read-out: Anti-echinicoccus activity, Dose confirmaiton 10uM, second-stage dose-response, 10 μM, PSCs
[1] = read-out: Anti-echinococcus activity % of death, 0.5uM, E. granulosus PSCs, compound at 0.5uM
[2] = read-out: Anti-echinococcus activity % of death, 2uM, E. granulosus PSCs, compound at 2uM
[3] = read-out: Anti-echinococcus activity % of death, 10uM, E. granulosus PSCs, compound at 10uM
[4] = read-out: Anti-echinococcus activity % of death, 50uM, E. granulosus PSCs, compound at 50uM
[5] = read-out: Anti-echinococcus activity % of death, 0.5uM
[6] = read-out: Anti-echinococcus activity % of death, 2uM
[7] = read-out: Anti-echinococcus activity % of death, 10uM
[8] = read-out: Anti-echinococcus activity % of death, 50uM
[9] = read-out: Anti-echinococcus activity % of death
[10] = 72 h, read-out: Anti-echinicoccus activity, Dose confirmaiton 50uM, second-stage dose-response, 50 μM, PSCs
[11] = 72 h, read-out: Anti-echinicoccus activity, Initiate hits 50uM, primary screen, 50 μM, PSCs, 3-day incubation, PI staining (death rate of PSCs)

CN(C)CC1CCn2cc(c3ccccc32)C2=C(C(=O)NC2=O)c2cn(c3ccccc23)CCO1 (centres unmarked) [Ruboxistaurin hydrochloride]
mortality at 0.5 µM [1]: 0%
mortality at 2 µM [2]: 0%
mortality at 10 µM [3]: 100%
mortality at 50 µM [4]: 100%

O=C(/C(=C/c1ccc(Cl)cc1Cl)n1ccnc1)c1ccc(Cl)cc1 [TS-80]
mortality at 0.5 µM [5]: 0%
mortality at 2 µM [6]: 0%
mortality at 10 µM [7]: 50%
mortality at 50 µM [8]: 100%

O[C@@H](c1cc(C(F)(F)F)nc2c(C(F)(F)F)cccc12)[C@H]1CCCCN1 [(+)-mefloquine]
mortality at 0.5 µM [1]: 0%
mortality at 2 µM [2]: 0%
mortality at 10 µM [3]: 0%
mortality at 50 µM [4]: 100%

C[C@@H]1C[C@H]2O[C@@H]2/C=C\C=C\C(=O)Cc2c(Cl)c(O)cc(O)c2C(=O)O1 [Radicicol]
mortality at 0.5 µM [1]: 0%
mortality at 2 µM [2]: 0%
mortality at 10 µM [3]: 0%
mortality at 50 µM [4]: 100%

COCCN1CCC(N(Cc2ccc(-c3ccc(C(F)(F)F)cc3)cc2)C(=O)Cn2c(SCc3cccc(F)c3F)cc(=O)c3ccccc32)CC1 [RILAPLADIB]
mortality at 0.5 µM [5]: 0%
mortality at 2 µM [6]: 0%
mortality at 10 µM [7]: 60%
mortality at 50 µM [8]: 100%

CC(C)(Cc1ccc2ccccc2c1)NC[C@@H](O)COc1cccc(Cl)c1C#N [SB 262470]
mortality at 0.5 µM [5]: 0%
mortality at 2 µM [6]: 0%
mortality at 10 µM [7]: 100%
mortality at 50 µM [8]: 100%

Cc1ccc(C(=O)OCc2ccc([C@@H](CN)C(=O)Nc3ccc4cnccc4c3)cc2)c(C)c1 [AR-13324]
mortality at 0.5 µM [5]: 0%
mortality at 2 µM [6]: 0%
mortality at 10 µM [7]: 0%
mortality at 50 µM [8]: 100%

O=C(Nc1ccc([N+](=O)[O-])cc1Cl)c1cc(Cl)ccc1O [Niclosamide]
MIC90 (72 h, read-out: MIC90 (minimum inhibitory concentration causing a 90% death of PSCs)): 2.9 µM (≈ 0.949 µg/mL)
mortality at 0.5 µM [1]: 0%
mortality at 2 µM [2]: 60%
mortality at 10 µM [3]: 100%
mortality at 50 µM [4]: 100%

CCCCCCCCN=c1ccn(CCCCCCCCCCn2ccc(=NCCCCCCCC)cc2)cc1 [octenidine]
mortality at 0.5 µM [5]: 0%
mortality at 2 µM [6]: 0%
mortality at 10 µM [7]: 50%
mortality at 50 µM [8]: 100%

CCCCCOc1ccc(C(O)(CCN(C)C)C2CCCCC2)cc1 (centres unmarked) [0/FCOCMDJFHNPRQP-UHFFFAOYSA-N]
mortality at 0.5 µM [5]: 0%
mortality at 2 µM [6]: 0%
mortality at 10 µM [7]: 0%
mortality at 50 µM [8]: 100%

COc1cc(CCNC(C)Cc2cc(OC)ccc2C#Cc2ccccc2)cc(OC)c1 (centres unmarked) [MCN 6186]
mortality at 0.5 µM [9]: 0%
mortality at 2 µM [9]: 0%
mortality at 10 µM [9]: 0%
mortality at 50 µM [9]: 100%

C=C(C(=O)OC1CC2CCC(C1)N2C)c1ccccc1 (centres unmarked) [APOATROPINE]
mortality at 0.5 µM [9]: 0%
mortality at 2 µM [9]: 0%
mortality at 10 µM [9]: 0%
mortality at 50 µM [9]: 100%

CCCCCCCCNC(=O)/C(C#N)=C\c1c(C)n(CCCN(C)C)c2ccccc12 [Anisina]
mortality at 0.5 µM [5]: 0%
mortality at 2 µM [6]: 0%
mortality at 10 µM [7]: 0%
mortality at 50 µM [8]: 100%

COc1cccc2c1C(=O)c1c(O)c3c(c(O)c1C2=O)C[C@@](O)(C(=O)CO)C[C@@H]3O[C@H]1C[C@H](N)[C@H](O)[C@H](C)O1 [Doxorubicin (Adriamycin), Doxorubicin, reference compound]
killing at 0.5 µM (72 h): 100%
killing at 2 µM (72 h): 100%
killing at 10 µM (72 h): 100%
killing at 50 µM [10]: 100%
killing at 50 µM [11]: 100%

CC(C)Oc1ccc(-c2nc(-c3cccc4c3CC[C@@H]4NCCO)no2)cc1C#N [Ozanimod]
mortality at 0.5 µM [9]: 0%
mortality at 2 µM [9]: 0%
mortality at 10 µM [9]: 0%
mortality at 50 µM [9]: 100%

CC(=O)Oc1ccccc1C(=O)Nc1ncc([N+](=O)[O-])s1 [Nitazoxanide, reference compound]
killing at 0.5 µM (72 h): 0%
killing at 2 µM (72 h): 0%
killing at 10 µM (72 h): 0%
killing at 50 µM [10]: 100%
killing at 50 µM [11]: 54%
mortality at 0.5 µM [1]: 0%
mortality at 2 µM [2]: 0%
mortality at 10 µM [3]: 0%
mortality at 50 µM [4]: 100%

CNC1CC(c2ccc(Cl)c(Cl)c2)c2ccccc21 (centres unmarked) [INDATRALINE]
mortality at 0.5 µM [9]: 0%
mortality at 2 µM [9]: 0%
mortality at 10 µM [9]: 0%
mortality at 50 µM [9]: 100%

Oc1c(Cl)cc(Cl)c(Cl)c1Cc1c(O)c(Cl)cc(Cl)c1Cl [HEXACHLOROPHENE]
mortality at 0.5 µM [5]: 0%
mortality at 2 µM [6]: 0%
mortality at 10 µM [7]: 100%
mortality at 50 µM [8]: 100%

Cc1cccc(C)c1NC(=O)CN1CCN(CCCC(c2ccc(F)cc2)c2ccc(F)cc2)CC1 [lidoflazine]
mortality at 0.5 µM [1]: 0%
mortality at 2 µM [2]: 0%
mortality at 10 µM [3]: 0%
mortality at 50 µM [4]: 100%

In brackets after ≈: the same amount, converted by molar mass. Where a name gives a salt, the structure may show the parent alone. Read-outs that look alike come from different tables or passages of the source.
